Experimental data published in publication PMC11062922 (Nature Chemical Biology, 2023).

Chains of the proteins cited; added tags and fusions are not shown. Lines headed by an entry give the natural chain unless they say otherwise; changes in a name come on top.
UniProt P49674: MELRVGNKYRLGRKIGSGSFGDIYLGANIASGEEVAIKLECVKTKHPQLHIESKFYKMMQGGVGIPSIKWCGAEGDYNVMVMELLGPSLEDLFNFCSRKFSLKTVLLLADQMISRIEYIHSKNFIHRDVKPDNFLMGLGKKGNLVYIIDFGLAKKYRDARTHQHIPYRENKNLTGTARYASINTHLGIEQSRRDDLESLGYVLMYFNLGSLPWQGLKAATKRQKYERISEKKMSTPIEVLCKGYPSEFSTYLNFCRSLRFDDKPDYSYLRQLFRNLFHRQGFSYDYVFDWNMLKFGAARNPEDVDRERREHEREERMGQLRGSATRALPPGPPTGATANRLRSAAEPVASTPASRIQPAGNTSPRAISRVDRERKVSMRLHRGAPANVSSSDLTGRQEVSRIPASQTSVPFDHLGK
UniProt P49841: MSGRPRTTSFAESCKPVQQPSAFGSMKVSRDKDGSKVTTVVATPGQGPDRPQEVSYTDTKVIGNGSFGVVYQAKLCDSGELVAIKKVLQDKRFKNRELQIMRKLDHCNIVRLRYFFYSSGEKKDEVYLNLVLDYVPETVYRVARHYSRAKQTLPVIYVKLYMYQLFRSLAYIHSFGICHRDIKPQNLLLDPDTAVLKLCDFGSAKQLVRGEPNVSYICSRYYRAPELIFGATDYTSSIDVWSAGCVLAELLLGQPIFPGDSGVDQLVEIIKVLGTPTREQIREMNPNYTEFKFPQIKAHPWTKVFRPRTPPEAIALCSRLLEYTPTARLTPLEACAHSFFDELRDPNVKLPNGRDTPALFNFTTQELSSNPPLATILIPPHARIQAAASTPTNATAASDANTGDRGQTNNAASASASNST
UniProt P19784, whole entry: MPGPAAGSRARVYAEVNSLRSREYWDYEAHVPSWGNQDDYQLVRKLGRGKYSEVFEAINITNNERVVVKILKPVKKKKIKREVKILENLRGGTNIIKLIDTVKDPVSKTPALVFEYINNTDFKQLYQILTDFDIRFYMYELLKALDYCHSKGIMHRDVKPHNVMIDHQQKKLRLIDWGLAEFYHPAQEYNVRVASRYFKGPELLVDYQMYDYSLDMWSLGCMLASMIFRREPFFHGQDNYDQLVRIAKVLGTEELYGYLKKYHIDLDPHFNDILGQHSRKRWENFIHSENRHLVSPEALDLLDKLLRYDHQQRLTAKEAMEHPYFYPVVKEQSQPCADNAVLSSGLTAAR
UniProt P68400, whole entry: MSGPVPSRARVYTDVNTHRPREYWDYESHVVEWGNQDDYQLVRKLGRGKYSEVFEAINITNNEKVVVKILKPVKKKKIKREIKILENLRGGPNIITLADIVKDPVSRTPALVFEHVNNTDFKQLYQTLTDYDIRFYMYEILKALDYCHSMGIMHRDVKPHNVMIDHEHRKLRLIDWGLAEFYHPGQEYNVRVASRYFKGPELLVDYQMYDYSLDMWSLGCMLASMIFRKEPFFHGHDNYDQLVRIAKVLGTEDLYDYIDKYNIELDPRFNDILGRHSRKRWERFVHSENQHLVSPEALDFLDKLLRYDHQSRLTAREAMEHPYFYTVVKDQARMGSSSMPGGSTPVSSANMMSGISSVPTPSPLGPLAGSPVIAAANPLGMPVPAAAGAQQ
UniProt P67870, whole entry: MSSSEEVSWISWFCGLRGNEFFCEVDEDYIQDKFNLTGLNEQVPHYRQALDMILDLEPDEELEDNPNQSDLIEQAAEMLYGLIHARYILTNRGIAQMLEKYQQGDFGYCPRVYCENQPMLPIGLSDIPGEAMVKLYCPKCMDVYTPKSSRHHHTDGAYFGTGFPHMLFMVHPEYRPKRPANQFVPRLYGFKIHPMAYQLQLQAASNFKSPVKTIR
UniProt O75822, whole entry: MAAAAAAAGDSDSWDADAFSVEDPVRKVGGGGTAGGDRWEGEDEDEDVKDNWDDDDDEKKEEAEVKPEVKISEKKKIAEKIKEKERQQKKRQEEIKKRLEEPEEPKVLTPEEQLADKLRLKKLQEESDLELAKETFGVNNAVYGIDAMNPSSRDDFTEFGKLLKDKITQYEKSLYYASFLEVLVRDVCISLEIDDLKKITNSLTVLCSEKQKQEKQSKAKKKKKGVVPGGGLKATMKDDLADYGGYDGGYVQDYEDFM
UniProt P42684, whole entry: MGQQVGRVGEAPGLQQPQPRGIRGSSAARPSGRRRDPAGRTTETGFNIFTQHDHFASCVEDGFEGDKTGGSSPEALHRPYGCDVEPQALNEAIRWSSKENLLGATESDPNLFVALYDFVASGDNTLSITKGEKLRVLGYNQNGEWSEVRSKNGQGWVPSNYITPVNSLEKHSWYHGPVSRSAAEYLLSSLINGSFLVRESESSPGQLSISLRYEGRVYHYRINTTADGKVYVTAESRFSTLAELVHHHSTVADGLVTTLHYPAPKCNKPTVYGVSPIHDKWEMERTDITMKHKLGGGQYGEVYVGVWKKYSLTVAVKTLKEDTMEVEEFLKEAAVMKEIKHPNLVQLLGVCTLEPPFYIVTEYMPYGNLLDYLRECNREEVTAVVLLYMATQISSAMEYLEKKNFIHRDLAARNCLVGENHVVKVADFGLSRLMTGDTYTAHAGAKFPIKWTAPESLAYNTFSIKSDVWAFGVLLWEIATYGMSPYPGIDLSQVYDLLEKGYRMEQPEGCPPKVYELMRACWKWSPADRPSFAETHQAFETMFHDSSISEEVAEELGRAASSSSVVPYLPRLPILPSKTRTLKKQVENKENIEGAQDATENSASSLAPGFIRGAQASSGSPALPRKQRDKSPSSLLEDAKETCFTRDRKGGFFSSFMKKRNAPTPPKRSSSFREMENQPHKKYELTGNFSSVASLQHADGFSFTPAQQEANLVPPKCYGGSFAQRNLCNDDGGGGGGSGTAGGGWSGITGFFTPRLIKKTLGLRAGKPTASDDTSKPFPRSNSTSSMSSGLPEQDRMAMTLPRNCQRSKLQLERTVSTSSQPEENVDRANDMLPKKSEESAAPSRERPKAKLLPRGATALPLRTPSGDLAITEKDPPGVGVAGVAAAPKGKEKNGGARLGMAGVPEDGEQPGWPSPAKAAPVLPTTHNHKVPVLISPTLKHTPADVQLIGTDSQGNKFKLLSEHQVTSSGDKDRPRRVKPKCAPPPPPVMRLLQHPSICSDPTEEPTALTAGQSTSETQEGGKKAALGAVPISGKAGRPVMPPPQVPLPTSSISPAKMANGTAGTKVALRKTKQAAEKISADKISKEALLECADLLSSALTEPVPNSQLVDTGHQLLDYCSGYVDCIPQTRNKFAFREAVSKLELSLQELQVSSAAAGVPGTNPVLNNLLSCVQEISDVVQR

What was measured:
CSNK1E = molecular target: T1, CSNK1E (Homo sapiens, UniProt P49674); assay: Kinobeads competition binding: CSNK1E; details: target CSNK1E
T1 construct: endogenous in cells

GSK3B = molecular target: T2, GSK3B (Homo sapiens, UniProt P49841); assay: Kinobeads two-dose competition binding: GSK3B; details: target GSK3B
T2 construct: endogenous in cells

[1] = molecular target: T3, endogenous kinases and other proteins enriched by Kinobeads from mixed cancer cell lysates (Homo sapiens, UniProt P19784); assay: Kinobeads pulldown, full dose-response (eight doses); type: binding; details: target CSNK2A2;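 further: competition with Kinobeads ε after inhibitor preincubation in lysate (5 mg/ml protein) for 45 min at 4 °C, DMSO control, doses 0.3–1,000 nM, label-free LC–MS/MS quantification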
T3 construct: endogenous in cells

[2] = molecular target: T4, endogenous kinases and other proteins enriched by Kinobeads from mixed cancer cell lysates (Homo sapiens, UniProt P16083); assay: as above; type: binding; details: target NQO2
T4 construct: endogenous in cells
T4 sequence (P16083 1-231): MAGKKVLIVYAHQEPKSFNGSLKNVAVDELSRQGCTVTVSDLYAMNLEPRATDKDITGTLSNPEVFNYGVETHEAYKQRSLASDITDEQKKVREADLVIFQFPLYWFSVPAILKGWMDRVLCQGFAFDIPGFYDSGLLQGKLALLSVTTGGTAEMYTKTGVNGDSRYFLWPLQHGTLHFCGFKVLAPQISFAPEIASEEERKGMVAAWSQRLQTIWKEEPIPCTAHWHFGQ

[3] = molecular target: T5, endogenous kinases and other proteins enriched by Kinobeads from mixed cancer cell lysates (Homo sapiens, UniProt P68400); assay: as above; type: binding; details: target CSNK2A1;CSNK2A3
T5 construct: endogenous in cells

[4] = molecular target: T6, endogenous kinases and other proteins enriched by Kinobeads from mixed cancer cell lysates (Homo sapiens, UniProt Q9Y616); assay: as above; type: binding; details: target IRAK3
T6 construct: endogenous in cells
T6 sequence (Q9Y616 1-596): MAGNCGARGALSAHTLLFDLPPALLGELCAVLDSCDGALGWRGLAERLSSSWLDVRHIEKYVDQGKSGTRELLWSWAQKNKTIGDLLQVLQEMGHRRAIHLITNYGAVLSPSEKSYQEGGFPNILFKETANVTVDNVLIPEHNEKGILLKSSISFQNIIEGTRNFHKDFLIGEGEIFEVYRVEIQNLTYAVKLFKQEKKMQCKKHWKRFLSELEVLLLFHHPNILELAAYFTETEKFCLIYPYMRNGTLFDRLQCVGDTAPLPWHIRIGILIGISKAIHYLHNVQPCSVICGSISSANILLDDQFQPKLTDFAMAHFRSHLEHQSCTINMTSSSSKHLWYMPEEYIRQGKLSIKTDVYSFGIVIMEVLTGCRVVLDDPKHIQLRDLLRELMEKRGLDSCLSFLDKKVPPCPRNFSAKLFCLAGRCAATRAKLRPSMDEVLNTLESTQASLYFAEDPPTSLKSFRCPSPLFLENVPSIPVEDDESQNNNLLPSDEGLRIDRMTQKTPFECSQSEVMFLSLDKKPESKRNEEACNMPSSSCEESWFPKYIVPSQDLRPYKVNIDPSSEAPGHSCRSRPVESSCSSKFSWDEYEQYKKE

[5] = molecular target: T7, endogenous kinases and other proteins enriched by Kinobeads from mixed cancer cell lysates (Homo sapiens, UniProt Q86TW2); assay: as above; type: binding; details: target ADCK1
T7 construct: endogenous in cells
T7 sequence (Q86TW2 1-530): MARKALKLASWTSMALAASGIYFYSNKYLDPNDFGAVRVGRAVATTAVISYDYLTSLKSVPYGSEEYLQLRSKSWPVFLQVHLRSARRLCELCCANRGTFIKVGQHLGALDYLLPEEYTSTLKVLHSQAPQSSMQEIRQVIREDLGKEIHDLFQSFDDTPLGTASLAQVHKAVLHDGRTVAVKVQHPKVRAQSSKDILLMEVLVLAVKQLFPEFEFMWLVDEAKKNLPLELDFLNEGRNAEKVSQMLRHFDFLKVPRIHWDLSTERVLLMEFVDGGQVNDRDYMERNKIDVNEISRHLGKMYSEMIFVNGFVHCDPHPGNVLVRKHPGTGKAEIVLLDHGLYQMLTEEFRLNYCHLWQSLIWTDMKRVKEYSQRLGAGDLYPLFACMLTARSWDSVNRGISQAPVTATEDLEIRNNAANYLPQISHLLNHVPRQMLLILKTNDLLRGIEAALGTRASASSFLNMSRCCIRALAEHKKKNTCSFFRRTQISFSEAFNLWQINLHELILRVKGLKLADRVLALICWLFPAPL

[6] = molecular target: T8, endogenous kinases and other proteins enriched by Kinobeads from mixed cancer cell lysates (Homo sapiens, UniProt P67870); assay: as above; type: binding; details: target CSNK2B
T8 construct: endogenous in cells

[7] = molecular target: endogenous kinases and other proteins enriched by Kinobeads from mixed cancer cell lysates (Homo sapiens, UniProt O75822); assay: as above; type: binding; design: endogenous in cells; details: target EIF3J
ABL2 = molecular target: T9, ABL2 (Homo sapiens, UniProt P42684); assay: Kinobeads two-dose competition binding: ABL2
T9 construct: endogenous in cells

CCN1CCN(Cc2ccc(Nc3ncc(F)c(-c4cc(F)c5nc(C)n(C(C)C)c5c4)n3)nc2)CC1 [Abemaciclib]
CATDS (CSNK1E): 0
CATDS (GSK3B): 0.06142

c1cn2cc(-c3ccc4cn[nH]c4c3)nc(Nc3ccc(N4CCOCC4)cc3)c2n1 [entospletinib]
Relative Intensity 3nM ([1]; 3nM): 0.9641
Relative Intensity 10nM ([1]; 10nM): 0.9745
Relative Intensity 30nM ([1]; 30nM): 0.9659
Relative Intensity 100nM ([1]; 100nM): 0.937
Relative Intensity 300nM ([1]; 300nM): 0.9329
Relative Intensity 1000nM ([1]; 1000nM): 0.5868
Relative Intensity 3000nM ([1]; 3000nM): 0.3908
Relative Intensity 30000nM ([1]; 30000nM): 0.1465
Relative Intensity 3nM ([2]; 3nM): 0.8638
Relative Intensity 10nM ([2]; 10nM): 0.7653
Relative Intensity 30nM ([2]; 30nM): 0.7014
Relative Intensity 100nM ([2]; 100nM): 0.706
Relative Intensity 300nM ([2]; 300nM): 0.5033
Relative Intensity 1000nM ([2]; 1000nM): 0.1091
Relative Intensity 3000nM ([2]; 3000nM): 0.05988
Relative Intensity 30000nM ([2]; 30000nM): 0.107
Relative Intensity 3nM ([3]; 3nM): 0.9165
Relative Intensity 10nM ([3]; 10nM): 0.9459
Relative Intensity 30nM ([3]; 30nM): 0.8853
Relative Intensity 100nM ([3]; 100nM): 0.9826
Relative Intensity 300nM ([3]; 300nM): 1.011
Relative Intensity 1000nM ([3]; 1000nM): 0.6149
Relative Intensity 3000nM ([3]; 3000nM): 0.4488
Relative Intensity 30000nM ([3]; 30000nM): 0.1701
Relative Intensity 3nM ([4]; 3nM): 1.0086
Relative Intensity 10nM ([4]; 10nM): 1.045
Relative Intensity 30nM ([4]; 30nM): 1.07
Relative Intensity 100nM ([4]; 100nM): 0.9847
Relative Intensity 300nM ([4]; 300nM): 1.066
Relative Intensity 1000nM ([4]; 1000nM): 0.8555
Relative Intensity 3000nM ([4]; 3000nM): 0.8417
Relative Intensity 30000nM ([4]; 30000nM): 0.5563
Relative Intensity 3nM ([5]; 3nM): 0.9978
Relative Intensity 10nM ([5]; 10nM): 0.8486
Relative Intensity 30nM ([5]; 30nM): 0.9503
Relative Intensity 100nM ([5]; 100nM): 0.9468
Relative Intensity 300nM ([5]; 300nM): 0.8835
Relative Intensity 1000nM ([5]; 1000nM): 0.7386
Relative Intensity 3000nM ([5]; 3000nM): 0.6987
Relative Intensity 30000nM ([5]; 30000nM): 0.4073
Relative Intensity 3nM ([6]; 3nM): 1.173
Relative Intensity 10nM ([6]; 10nM): 1.116
Relative Intensity 30nM ([6]; 30nM): 1.253
Relative Intensity 100nM ([6]; 100nM): 0.9999
Relative Intensity 300nM ([6]; 300nM): 1.216
Relative Intensity 1000nM ([6]; 1000nM): 0.672
Relative Intensity 3000nM ([6]; 3000nM): 0.4372
Relative Intensity 30000nM ([6]; 30000nM): 0.231
Relative Intensity 3nM ([7]; 3nM): 0.8724
Relative Intensity 10nM ([7]; 10nM): 0.9483
Relative Intensity 30nM ([7]; 30nM): 1.14
Relative Intensity 100nM ([7]; 100nM): 0.8522
Relative Intensity 300nM ([7]; 300nM): 1.105
Relative Intensity 1000nM ([7]; 1000nM): 0.6452
Relative Intensity 3000nM ([7]; 3000nM): 0.4407
Relative Intensity 30000nM ([7]; 30000nM): 0.1633

COc1cc(Nc2c(C#N)cnc3cc(OCCCN4CCN(C)CC4)c(OC)cc23)c(Cl)cc1Cl [Bosutinib]
CATDS (ABL2): 0.09747
